The target in the experiment is T1, Dihydrofolate reductase (Homo sapiens, UniProt P00374).
T1 sequence (P00374 whole entry): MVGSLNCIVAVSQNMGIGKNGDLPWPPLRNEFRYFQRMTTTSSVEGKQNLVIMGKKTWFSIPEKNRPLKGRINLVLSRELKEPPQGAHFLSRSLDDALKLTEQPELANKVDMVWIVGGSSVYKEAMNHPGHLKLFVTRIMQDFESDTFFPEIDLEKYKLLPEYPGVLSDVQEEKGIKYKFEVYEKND
Nature of the experiment: Inhibition of DHFR.

With `Nc1nc2[nH]cc(CCc3ccc(C(=O)N[C@@H](CCC(=O)O)C(=O)O)cc3)c2c(=O)[nH]1` [PEMETREXED], the Ki (as a rule, a dissociation constant, usually derived from enzyme kinetics or from competition with a known ligand) is 7.2 nM.

Source of the values: ChEMBL document CHEMBL1250453, “Novel approaches for targeting thymidylate synthase to overcome the resistance and toxicity of anticancer drugs” (J Med Chem, 2010).
